This passage reports Kd results from patent US20240000946A1, “CARBONIC ANHYDRASE INHIBITORS SYNTHESIZED ON INTERCONNECTING LINKER CHAINS” (VILNIUS UNIVERSITY, priority 2020, published 2024).

By UniProt entry, the sequences of proteins in these tests, tags left out. Residues count along the entry.
UniProt Q8N1Q1, 4-261 limits assumed: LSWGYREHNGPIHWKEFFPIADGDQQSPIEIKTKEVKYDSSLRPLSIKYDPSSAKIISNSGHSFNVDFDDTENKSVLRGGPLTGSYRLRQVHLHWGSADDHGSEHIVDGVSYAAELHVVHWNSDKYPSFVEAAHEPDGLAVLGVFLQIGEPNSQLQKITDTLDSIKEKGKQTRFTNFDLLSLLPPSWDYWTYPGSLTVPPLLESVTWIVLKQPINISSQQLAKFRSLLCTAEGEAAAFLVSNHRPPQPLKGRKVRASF
UniProt P23280, 21-278 limits assumed: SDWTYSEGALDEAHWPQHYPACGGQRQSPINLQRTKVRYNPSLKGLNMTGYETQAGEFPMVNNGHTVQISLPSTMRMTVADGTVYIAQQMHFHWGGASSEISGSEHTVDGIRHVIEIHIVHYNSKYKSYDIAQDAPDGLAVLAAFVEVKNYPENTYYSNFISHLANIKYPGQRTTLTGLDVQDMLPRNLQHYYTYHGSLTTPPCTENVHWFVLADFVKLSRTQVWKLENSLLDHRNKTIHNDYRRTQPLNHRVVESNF
UniProt Q9ULX7, 20-278 limits assumed: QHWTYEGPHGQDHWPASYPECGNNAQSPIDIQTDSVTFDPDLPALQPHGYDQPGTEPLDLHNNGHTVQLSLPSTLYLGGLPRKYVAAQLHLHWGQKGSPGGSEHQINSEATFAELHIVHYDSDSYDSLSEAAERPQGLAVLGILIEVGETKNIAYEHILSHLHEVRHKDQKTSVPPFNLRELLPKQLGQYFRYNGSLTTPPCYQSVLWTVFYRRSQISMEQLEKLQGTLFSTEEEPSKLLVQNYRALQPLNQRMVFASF
UniProt P00915, 4-261 limits assumed: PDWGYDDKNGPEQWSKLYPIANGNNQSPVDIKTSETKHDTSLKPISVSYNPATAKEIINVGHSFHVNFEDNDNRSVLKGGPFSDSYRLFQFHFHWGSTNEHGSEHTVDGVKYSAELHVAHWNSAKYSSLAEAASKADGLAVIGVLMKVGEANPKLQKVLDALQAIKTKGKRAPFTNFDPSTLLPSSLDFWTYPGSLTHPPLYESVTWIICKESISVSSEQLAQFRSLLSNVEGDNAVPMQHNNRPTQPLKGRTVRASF
UniProt P43166, 5-262 limits assumed: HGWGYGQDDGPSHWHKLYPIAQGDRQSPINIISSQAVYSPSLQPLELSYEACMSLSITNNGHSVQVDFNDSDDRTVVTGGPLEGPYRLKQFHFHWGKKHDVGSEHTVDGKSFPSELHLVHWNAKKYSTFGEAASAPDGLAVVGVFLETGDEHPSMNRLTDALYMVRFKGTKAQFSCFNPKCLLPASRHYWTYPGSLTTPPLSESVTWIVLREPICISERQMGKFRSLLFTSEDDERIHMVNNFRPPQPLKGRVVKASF
UniProt O43570, 30-289 limits assumed: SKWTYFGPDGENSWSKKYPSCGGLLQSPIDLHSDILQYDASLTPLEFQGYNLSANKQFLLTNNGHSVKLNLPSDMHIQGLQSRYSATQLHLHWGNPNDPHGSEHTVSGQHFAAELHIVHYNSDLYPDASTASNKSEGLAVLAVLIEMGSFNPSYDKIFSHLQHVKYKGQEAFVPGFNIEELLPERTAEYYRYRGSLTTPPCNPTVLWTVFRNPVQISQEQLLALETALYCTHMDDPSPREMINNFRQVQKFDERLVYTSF
UniProt P22748, 21-285 limits assumed: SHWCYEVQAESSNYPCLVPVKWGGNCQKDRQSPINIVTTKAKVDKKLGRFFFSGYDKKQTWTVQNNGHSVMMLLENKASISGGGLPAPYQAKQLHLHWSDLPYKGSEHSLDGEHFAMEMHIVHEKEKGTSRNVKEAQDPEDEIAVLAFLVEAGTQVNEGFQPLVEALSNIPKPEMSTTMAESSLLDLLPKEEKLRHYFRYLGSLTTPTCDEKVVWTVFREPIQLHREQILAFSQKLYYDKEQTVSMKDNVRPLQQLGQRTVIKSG
UniProt P35218, 39-296 limits assumed: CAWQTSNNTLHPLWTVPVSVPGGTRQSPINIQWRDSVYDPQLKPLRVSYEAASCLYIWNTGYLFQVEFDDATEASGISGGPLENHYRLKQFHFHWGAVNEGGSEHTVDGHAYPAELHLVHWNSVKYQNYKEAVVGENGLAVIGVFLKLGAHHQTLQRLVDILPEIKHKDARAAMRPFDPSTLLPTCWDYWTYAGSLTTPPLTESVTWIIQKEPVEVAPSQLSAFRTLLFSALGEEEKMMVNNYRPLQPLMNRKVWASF
UniProt Q9Y2D0, 37-296 limits assumed: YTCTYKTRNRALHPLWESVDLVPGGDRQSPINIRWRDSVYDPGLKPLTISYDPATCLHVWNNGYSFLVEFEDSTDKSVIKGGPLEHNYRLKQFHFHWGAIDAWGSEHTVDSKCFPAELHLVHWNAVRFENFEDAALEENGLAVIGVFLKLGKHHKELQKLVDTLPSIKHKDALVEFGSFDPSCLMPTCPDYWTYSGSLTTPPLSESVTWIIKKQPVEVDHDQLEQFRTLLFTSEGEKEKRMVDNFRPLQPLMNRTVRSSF
UniProt P07451, 3-259 limits assumed: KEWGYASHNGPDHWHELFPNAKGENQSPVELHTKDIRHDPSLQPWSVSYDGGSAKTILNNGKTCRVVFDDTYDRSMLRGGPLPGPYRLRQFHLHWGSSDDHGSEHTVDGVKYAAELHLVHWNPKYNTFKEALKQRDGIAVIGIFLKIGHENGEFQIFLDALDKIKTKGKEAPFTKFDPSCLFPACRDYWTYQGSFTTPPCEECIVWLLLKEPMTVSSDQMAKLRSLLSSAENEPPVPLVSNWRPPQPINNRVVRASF

A value given as a limit tells only on which side of the number the result lay.

Format in all cases: binding
Common to all, as to conditions: 37° C., pH 7.0

The target of assay [1] is T1, human recombinant CA XIII (Homo sapiens, UniProt Q8N1Q1).
T1 construct: recombinant human carbonic anhydrase catalytic domains using the fluorescent thermal shift assay; made in house
The assay is described as follows: Fluorescent thermal shift assay (FTSA), CA XIII.

The target in the next assay is T2, human recombinant CA II (Homo sapiens, UniProt P00918).
T2 construct: recombinant human carbonic anhydrase catalytic domains using the fluorescent thermal shift assay; made in house
The assay is described as follows: Fluorescent thermal shift assay (FTSA), CA II.

The target of the next assay is T3, human recombinant CA IX (Homo sapiens, UniProt Q16790).
T3 construct: recombinant human carbonic anhydrase catalytic domains using the fluorescent thermal shift assay; made in house
The assay is described as follows: Fluorescent thermal shift assay (FTSA), CA IX.

In another assay the target is T4, human recombinant CA VI (Homo sapiens, UniProt P23280).
T4 construct: recombinant human carbonic anhydrase catalytic domains using the fluorescent thermal shift assay; made in house
The assay is described as follows: Fluorescent thermal shift assay (FTSA), CA VI.

The target in the next assay is T5, human recombinant CA XIV (Homo sapiens, UniProt Q9ULX7).
T5 construct: recombinant human carbonic anhydrase catalytic domains using the fluorescent thermal shift assay; made in house
The assay can be described thus: Fluorescent thermal shift assay (FTSA), CA XIV.

For the next assay, the target named is T6, human recombinant CA I (Homo sapiens, UniProt P00915).
T6 construct: recombinant human carbonic anhydrase catalytic domains using the fluorescent thermal shift assay; made in house
The assay is described as follows: Fluorescent thermal shift assay (FTSA), CA I.

The target of the next assay is T7, human recombinant CA VII (Homo sapiens, UniProt P43166).
T7 construct: recombinant human carbonic anhydrase catalytic domains using the fluorescent thermal shift assay; made in house
The assay can be described thus: Fluorescent thermal shift assay (FTSA), CA VII.

The target in another assay is T8, human recombinant CA XII (Homo sapiens, UniProt O43570).
T8 construct: recombinant human carbonic anhydrase catalytic domains using the fluorescent thermal shift assay; made in house
The assay is described as follows: Fluorescent thermal shift assay (FTSA), CA XII.

The next assay deals with T9, human recombinant CA IV (Homo sapiens, UniProt P22748).
T9 construct: recombinant human carbonic anhydrase catalytic domains using the fluorescent thermal shift assay; made in house
The assay is described as follows: Fluorescent thermal shift assay (FTSA), CA IV.

A further assay concerns the target T10, human recombinant CA VA (Homo sapiens, UniProt P35218).
T10 construct: recombinant human carbonic anhydrase catalytic domains using the fluorescent thermal shift assay; made in house
The assay is described as follows: Fluorescent thermal shift assay (FTSA), CA VA.

The target in the next assay is T11, human recombinant CA VB (Homo sapiens, UniProt Q9Y2D0).
T11 construct: recombinant human carbonic anhydrase catalytic domains using the fluorescent thermal shift assay; made in house
The assay is described as follows: Fluorescent thermal shift assay (FTSA), CA VB.

A further assay concerns the target T12, human recombinant CA III (Homo sapiens, UniProt P07451).
T12 construct: recombinant human carbonic anhydrase catalytic domains using the fluorescent thermal shift assay; made in house
The assay can be described thus: Fluorescent thermal shift assay (FTSA), CA III.

As for “4arm-PEG5000-tetraacetamide, tetrakis-(N-[2-[2-(cyclooctylamino)-3,5,6-trifluoro-4-sulfamoyl-phenyl]sulfonylethyl]) [Compound E20-3]”, the Kd in [1] came out at 34 nM; at human recombinant CA II, 1000 nM; at human recombinant CA IX, 0.009 nM; on human recombinant CA VI, 330 nM; at human recombinant CA XIV, 40 nM; at human recombinant CA I, 16 µM. The Kd on human recombinant CA VII was 63 nM; on human recombinant CA XII it was 63 nM; on human recombinant CA IV, 810 nM; at human recombinant CA VA, 2.5 µM; at human recombinant CA VB, 52 nM; at human recombinant CA III, > 200 µM.
`NS(=O)(=O)c1c(F)c(F)c(S(=O)(=O)CCNC(=O)CCOCCOCCOCCOCCOCCOCCOCCOCCOCCOCCOCCOCCOCCC(=O)NCCS(=O)(=O)c2c(F)c(F)c(S(N)(=O)=O)c(F)c2NC2CCCCCCC2)c(NC2CCCCCCC2)c1F` [AZ19-3-2, N-[2-[2-(cyclooctylamino)-3,5,6-trifluoro-4-sulfamoyl-phenyl]sulfonylethyl]-3-[2-[2-[2-[2-[2-[2-[2-[2-[2-[2-[2-[2-[3-[2-[2-(cyclooctylamino)-3,5,6-trifluoro-4-sulfamoyl-phenyl]sulfonylethylamino]-3-oxo-propoxy]ethoxy]ethoxy]ethoxy]ethoxy]ethoxy]ethoxy]ethoxy]ethoxy]ethoxy]ethoxy]ethoxy]ethoxy]propanamide]: the Kd on human recombinant CA VI turned out to be 330 nM.
Regarding “Bis(3-aminopropyl)PEG1500, N,N′-bis(4-[(4-cyclohexylsulfanyl-3-sulfamoyl-benzoyl)amino]butanoyl) [LS20-1-5]”, the Kd was ≥ 200000 nM in [1]; ≥ 200000 nM on human recombinant CA II; 1100 nM at human recombinant CA IX; ≥ 200000 nM on human recombinant CA VI; > 200000 nM at human recombinant CA XIV; ≥ 200 µM at human recombinant CA I. Moreover, the Kd is ≥ 200000 nM at human recombinant CA VII; ≥ 200000 nM at human recombinant CA XII; ≥ 200000 nM on human recombinant CA IV; ≥ 200 µM on human recombinant CA VA; ≥ 200000 nM on human recombinant CA VB; ≥ 200 µM at human recombinant CA III.
Turning to “Bis(3-aminopropyl)PEG1500, N,N′-bis(4-cyclohexylsulfanyl-3-sulfamoyl-benzoyl) [LS20-2-5]”, the Kd in assay [1] is ≥ 200000 nM; at human recombinant CA II, ≥ 200000 nM; at human recombinant CA IX, 1900 nM; at human recombinant CA VI it was > 200000 nM; at human recombinant CA XIV it was ≥ 200000 nM; at human recombinant CA I, ≥ 200 µM. Moreover, the Kd was ≥ 200000 nM at human recombinant CA VII; ≥ 200000 nM at human recombinant CA XII; 23000 nM at human recombinant CA IV; ≥ 200 µM at human recombinant CA VA; ≥ 200000 nM at human recombinant CA VB; ≥ 200 µM on human recombinant CA III.
Take “Bis-(N′-[2-[2-(cyclooctylamino)-3,5,6-trifluoro-4-sulfamoyl-phenyl]sulfonylethyl]butanediamide)-mPEG2000 [Compound E20-1]”: the Kd in assay [1] was 20 nM; on human recombinant CA II, 400 nM; on human recombinant CA IX it was 0.004 nM; on human recombinant CA VI, 270 nM; at human recombinant CA XIV it was 49 nM; on human recombinant CA I, 8.2 µM. Besides, the Kd is 48 nM on human recombinant CA VII; 39 nM at human recombinant CA XII; 120 nM on human recombinant CA IV; 8.3 µM at human recombinant CA VA; 39 nM on human recombinant CA VB; ≥ 200 µM on human recombinant CA III.
For the compound “N′-[2-[2-(cyclooctylamino)-3,5,6-trifluoro-4-sulfamoyl-phenyl]sulfonylethyl]-N-(2-O-methyl-mPEG75o)butanediamide [Compound E20-2]”, the Kd worked out at 23 nM in [1]; 350 nM at human recombinant CA II; 0.1 nM at human recombinant CA IX; 560 nM at human recombinant CA VI; 100 nM at human recombinant CA XIV; 8.5 µM on human recombinant CA I. For the same compound, the Kd at human recombinant CA VII is 53 nM; on human recombinant CA XII, 49 nM; at human recombinant CA IV it was 820 nM; at human recombinant CA VA it was 8.2 µM; on human recombinant CA VB it was 58 nM; at human recombinant CA III, ≥ 200 µM.

For orientation: Kd means the constant that tells how readily two partners part at equilibrium.
